This data set is described as follows: Viscosity of liquid oil (E) on a Brookfield viscometer. Type of data set: physicochemical. The settings on record: at 25 degrees C., No. 2 spindle, 12 rpm. On the procedure: The liquid oil having a viscosity of from 5 to 400 mPa·s at 25 degrees C., (E), is known and commonly used in cosmetics. The viscosity of the liquid oil at 25 degrees C. is preferably 8 to 350 mPa·s, and more preferably 12 to 300 mPa·s. […] The viscosity is measured on a Brookfield viscometer using No. 2 spindle at 12 rpm.

Regarding glycerol tri(caprylate/caprate), the Viscosity came out at 25 mPa·s.

(Values after patent US20060204460A1, “Lip gloss composition” (KOKYU ALCOHOL KOGYO CO., LTD., priority 2005, published 2006).)
